The test system of this series is CCC/C=C/C=O. In words: purified protein. As to conditions: pH 7.2; 25.0 °C.

For one substance, Km results are on record in doi:10.1101/820381v1 (biorxiv, 2019).

Regarding “OPR3 (12-oxophytodienoic acid reductase 3) (Arabidopsis thaliana)”, the Km (as a rule, the substrate concentration at which the rate is half of its maximum) was 4.36 ± 0.318 mM.
